This experiment has as its system protein MxA. Briefly: Cell sensitivity to interferon: MxA protein immunoblot in A-549 cells. It counts as cell-based. The note with it: interferon alone at 1 IU (line 4, FIG. 3). From the text: An increase in the density of interferon receptors on a cell surface must result in an increased sensitivity of cells to weak signals of endogenous interferon under conditions when its signaling is suppressed by a viral infection. […] Cell lysates were undergone to the procedure of immunoblot analysis (western blotting) by using monoclonal antibodies against to protein MxA (sc-50509, Santa Cruz Biotechnology) to stain membranes by a chemiluminescence method using a substrate (chemiluminescent reagent SUPER SIGNAL® West Femto Chemiluminescent Substrate (Thermo Fisher Scientific)). The protein MxA was selected as an indicator product that is indicative of the expression of interferon-stimulated genes (ISGs) when the cells are treated with interferon.
On the technique in general: In western blotting, separated proteins are transferred to a membrane and probed.

In the case of “Interferon: interferon-alpha (IFNα: ROFERON-A3®, Roche Molecular Biochemicals, Mannheim)”, the “synthesis of MxA protein” value is listed as “did not induce the synthesis”.

The values above are taken from patent publication US9730915B2, “Method for preventing or treating diseases associated with a reduced density of interferon receptors” (OBSCHESTVO S OGRANICHENNOI OTVETSTVENNOSTIYU …, priority 2013, dated 2017).
